The results in this text go back to ChEMBL document CHEMBL1154736, “Increasing selectivity of CC chemokine receptor 8 antagonists by engineering nondesolvation related interactions with the intended and off-target binding sites” (J Med Chem, 2009).

The chains behind the UniProt entries cited, without tags or fusion partners. Where a name states a change or a piece, a line headed by the entry shows the natural chain unless it says otherwise.
UniProt P51685, whole entry: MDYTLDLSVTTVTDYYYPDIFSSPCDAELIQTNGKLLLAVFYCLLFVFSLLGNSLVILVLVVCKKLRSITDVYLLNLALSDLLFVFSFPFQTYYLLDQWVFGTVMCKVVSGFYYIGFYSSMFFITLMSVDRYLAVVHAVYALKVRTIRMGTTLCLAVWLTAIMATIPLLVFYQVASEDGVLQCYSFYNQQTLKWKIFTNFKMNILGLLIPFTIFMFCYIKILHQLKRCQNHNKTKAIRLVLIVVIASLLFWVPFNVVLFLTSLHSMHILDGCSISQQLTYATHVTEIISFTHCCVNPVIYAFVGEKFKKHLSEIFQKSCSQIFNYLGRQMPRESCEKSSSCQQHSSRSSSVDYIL
UniProt Q12809: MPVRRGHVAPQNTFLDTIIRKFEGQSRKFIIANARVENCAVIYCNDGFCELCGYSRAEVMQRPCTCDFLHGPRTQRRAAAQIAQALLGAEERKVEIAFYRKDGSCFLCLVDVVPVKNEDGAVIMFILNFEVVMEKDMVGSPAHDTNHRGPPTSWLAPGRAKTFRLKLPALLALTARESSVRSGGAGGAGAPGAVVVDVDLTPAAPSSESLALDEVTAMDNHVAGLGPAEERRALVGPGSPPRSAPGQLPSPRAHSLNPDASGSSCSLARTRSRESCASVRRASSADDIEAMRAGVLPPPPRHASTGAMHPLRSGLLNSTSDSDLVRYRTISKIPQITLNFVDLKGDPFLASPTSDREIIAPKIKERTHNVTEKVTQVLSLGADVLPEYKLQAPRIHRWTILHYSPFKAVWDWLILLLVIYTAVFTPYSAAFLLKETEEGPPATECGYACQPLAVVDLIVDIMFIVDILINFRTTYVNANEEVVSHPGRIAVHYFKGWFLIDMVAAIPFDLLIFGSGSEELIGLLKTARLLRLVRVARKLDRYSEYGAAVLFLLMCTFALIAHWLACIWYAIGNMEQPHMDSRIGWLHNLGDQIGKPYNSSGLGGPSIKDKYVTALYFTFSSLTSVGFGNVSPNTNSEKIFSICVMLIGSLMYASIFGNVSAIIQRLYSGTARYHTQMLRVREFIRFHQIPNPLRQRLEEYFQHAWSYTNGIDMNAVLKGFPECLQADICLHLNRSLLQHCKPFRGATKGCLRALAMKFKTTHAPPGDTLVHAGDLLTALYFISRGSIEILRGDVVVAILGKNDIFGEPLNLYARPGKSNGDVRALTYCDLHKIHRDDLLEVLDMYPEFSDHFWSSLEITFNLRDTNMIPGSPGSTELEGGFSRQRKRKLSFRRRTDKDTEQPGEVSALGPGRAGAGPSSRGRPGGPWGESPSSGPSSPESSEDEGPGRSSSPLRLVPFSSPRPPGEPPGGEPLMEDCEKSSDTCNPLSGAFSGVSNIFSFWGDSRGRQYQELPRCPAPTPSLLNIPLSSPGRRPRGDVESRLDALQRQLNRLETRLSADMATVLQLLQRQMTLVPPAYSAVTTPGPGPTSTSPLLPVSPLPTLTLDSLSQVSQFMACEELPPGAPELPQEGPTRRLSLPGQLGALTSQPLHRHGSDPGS

Assay [1] deals with C-C chemokine receptor type 8 (Homo sapiens, UniProt P51685). Kind of assay: Antagonist activity at human CCR8. It is filed as functional.
Assay [2] concerns the target T1, Voltage-gated inwardly rectifying potassium channel KCNH2 (Homo sapiens, UniProt Q12809). Kind of assay: Displacement of [3H]dofetilide from human recombinant ERG expressed in HEK293 cells by patch clamp method.
Assay [3] concerns the target T1, Voltage-gated inwardly rectifying potassium channel KCNH2. Kind of assay: Inhibition of wild type human ERG expressed in CHOK1 cells by whole-cell plate-based electrophysiology.

Take `O=C(c1ccncc1)N1CCC2(CCN(Cc3cccc(Oc4ccccc4)c3)CC2)CC1`: in assay [1], the IC50 was 0.0174 µM.
As to `CC1Cc2cccc(CN3CCC4(CC3)CCN(C(=O)c3ccncc3)CC4)c2O1` (stereo not given), the figures for the IC50 in assay [2], in assay [3] and in assay [1] were 8.13 µM, 20.9 µM and 0.129 µM, respectively.
Take `CC1(C)C=Cc2cccc(CN3CCC4(CC3)CCN(C(=O)c3ccnc(N)c3)CC4)c2O1`: inhibition in assay [3] was half-maximal at 38 µM (IC50).

The IC50 is the midpoint of a concentration-inhibition curve.
